From ChEMBL document CHEMBL4421730, “Synthetic compounds and derivatives as modulators of smoking or nicotine ingestion and lung cancer” (2013)

Target: T1, Cytochrome P450 2A6 (Homo sapiens, UniProt P11509)
T1 sequence (P11509 whole entry): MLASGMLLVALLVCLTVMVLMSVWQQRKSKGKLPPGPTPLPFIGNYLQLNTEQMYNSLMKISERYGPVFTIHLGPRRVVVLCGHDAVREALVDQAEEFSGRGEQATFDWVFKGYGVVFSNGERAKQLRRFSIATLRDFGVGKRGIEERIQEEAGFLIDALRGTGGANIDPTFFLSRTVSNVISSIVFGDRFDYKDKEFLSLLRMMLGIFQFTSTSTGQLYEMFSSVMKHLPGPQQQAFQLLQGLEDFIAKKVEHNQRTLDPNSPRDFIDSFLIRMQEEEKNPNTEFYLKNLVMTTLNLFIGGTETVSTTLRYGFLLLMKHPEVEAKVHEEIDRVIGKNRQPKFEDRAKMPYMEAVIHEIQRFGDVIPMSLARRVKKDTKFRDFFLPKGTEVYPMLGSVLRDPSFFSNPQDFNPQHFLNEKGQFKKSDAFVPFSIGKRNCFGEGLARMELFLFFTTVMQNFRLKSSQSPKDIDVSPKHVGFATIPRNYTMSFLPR
Assay: Inhibition of CYP2A6 in human liver microsomes assessed as reduction in CYP2A6-mediated nicotine oxidase activity using [3H]-nicotine in presence of NADPH-generating system incubated for 20 mins by TLC/radiometric assay

Compound: N[C@@H]1C[C@H]1c1ccccc1.N[C@H]1C[C@@H]1c1ccccc1 [TRANYLCYPROMINE]
- IC50: 0.08 µM
